# Reference: patent US8633206B2, “Pyrrolo[2,3-D]pyrimidine compounds” (Pfizer Inc., priority 2009, dated 2014)
# The chains behind the UniProt entries cited, without tags or fusion partners. Where a name states a change or a piece, a line headed by the entry shows the natural chain unless it says otherwise. Residues count along the entry.
# UniProt P52333, 781-1124: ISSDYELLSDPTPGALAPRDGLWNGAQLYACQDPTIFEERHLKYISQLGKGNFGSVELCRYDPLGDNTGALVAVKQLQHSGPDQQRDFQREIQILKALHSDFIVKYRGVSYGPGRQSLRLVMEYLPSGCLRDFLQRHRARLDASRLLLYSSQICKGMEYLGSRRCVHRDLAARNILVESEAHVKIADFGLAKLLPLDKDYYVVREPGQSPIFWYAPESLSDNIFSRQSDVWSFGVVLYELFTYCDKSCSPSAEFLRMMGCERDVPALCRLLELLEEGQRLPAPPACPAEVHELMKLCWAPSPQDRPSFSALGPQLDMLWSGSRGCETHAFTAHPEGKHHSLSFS
# UniProt P23458: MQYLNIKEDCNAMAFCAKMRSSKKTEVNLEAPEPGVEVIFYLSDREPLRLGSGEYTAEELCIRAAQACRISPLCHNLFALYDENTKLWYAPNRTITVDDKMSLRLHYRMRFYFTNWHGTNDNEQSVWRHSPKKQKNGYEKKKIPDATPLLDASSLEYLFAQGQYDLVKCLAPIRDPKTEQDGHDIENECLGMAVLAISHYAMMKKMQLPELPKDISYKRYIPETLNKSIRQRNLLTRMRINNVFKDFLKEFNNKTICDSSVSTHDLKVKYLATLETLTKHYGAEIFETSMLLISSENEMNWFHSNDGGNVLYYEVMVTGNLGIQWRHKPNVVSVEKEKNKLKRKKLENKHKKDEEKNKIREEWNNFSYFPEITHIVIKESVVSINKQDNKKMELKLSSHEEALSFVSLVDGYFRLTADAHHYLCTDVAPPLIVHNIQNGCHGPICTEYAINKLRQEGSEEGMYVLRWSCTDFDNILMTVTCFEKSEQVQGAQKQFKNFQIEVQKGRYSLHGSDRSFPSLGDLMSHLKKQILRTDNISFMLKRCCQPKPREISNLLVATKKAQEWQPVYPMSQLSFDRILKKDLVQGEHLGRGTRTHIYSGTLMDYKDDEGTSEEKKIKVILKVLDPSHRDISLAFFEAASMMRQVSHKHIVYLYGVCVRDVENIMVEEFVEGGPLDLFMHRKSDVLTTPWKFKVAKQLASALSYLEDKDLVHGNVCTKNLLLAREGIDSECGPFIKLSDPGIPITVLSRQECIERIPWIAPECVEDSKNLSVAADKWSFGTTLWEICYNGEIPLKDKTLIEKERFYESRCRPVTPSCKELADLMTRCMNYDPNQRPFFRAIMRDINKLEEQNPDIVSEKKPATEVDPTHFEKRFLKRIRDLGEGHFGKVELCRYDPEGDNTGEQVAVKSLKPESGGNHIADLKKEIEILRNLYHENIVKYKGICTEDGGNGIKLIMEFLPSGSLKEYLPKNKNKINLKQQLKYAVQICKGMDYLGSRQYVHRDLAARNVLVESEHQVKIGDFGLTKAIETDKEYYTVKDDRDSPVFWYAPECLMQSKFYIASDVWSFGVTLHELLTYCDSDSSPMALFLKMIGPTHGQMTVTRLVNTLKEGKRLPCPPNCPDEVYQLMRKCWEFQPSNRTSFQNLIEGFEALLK
# UniProt O60674, 808-1132: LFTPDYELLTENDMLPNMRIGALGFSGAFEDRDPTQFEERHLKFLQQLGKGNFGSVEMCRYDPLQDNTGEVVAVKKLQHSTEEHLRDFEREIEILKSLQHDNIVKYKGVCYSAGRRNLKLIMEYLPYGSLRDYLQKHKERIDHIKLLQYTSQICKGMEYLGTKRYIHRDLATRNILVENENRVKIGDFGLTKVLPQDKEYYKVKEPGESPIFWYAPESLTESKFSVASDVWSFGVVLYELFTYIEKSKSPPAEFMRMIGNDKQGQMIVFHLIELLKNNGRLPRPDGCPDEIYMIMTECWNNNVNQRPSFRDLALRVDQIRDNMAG
# pIC50: −log10 of the molar value.
# What was measured:
# Type in all cases: biochemical
# [1] = biological target: JAK3 (Homo sapiens (Human), UniProt P52333); assay: JAK enzymatic assay (peptide mobility shift), JAK3; conditions: recombinant JAK3 1 nM, JAKtide peptide, 90 minutes
# Protocol: (§1) Recombinant JAK1 (Catalog Number PV4775), JAK2 (Catalog Number PV4210) and JAK3 (Catalog Number PV3855) were purchased from (Invitrogen Corporation, Madison, Wis.). […] Adenosine 5′-triphosphate (ATP) was obtained from (Sigma Chemical Company, St. Louis, Mo.). […] Coating Reagent 3 was purchased from (Caliper Life Sciences, Hopkinton, Mass.).
# (§2) Compounds were diluted serially in 100% dimethyl sulfoxide and tested in an 11 point dose response in duplicate or quadruplicate (200 nl of compound/DMSO was added per 10 L reaction). […] The assay was run for 240 minutes for JAK1, 150 minutes for JAK2, 90 minutes for JAK3 and 70 minutes for Tyk2. […] The plates were placed on a LabChip 3000 (LC3000) instrument from (Caliper Life Sciences) to measure the formation of phosphorylated peptide. Data was analyzed using Hits Well Analyzer Software from (Caliper Life Sciences) to obtain the amount of product formed.
# (§3) Data was then imported into an internal application where each data point is expressed as % inhibition based on uninhibited and no enzyme controls. Dose-response data is then fit using a 4 parameter logistic equation (Equation 1) to determine an IC50.
# [2] = biological target: JAK1 (Homo sapiens (Human), UniProt P23458); assay: JAK enzymatic assay (peptide mobility shift), JAK1; conditions: recombinant JAK1 20 nM, IRS-1 peptide, 240 minutes
# Protocol: as §1, §2, §3
# [3] = biological target: JAK2 (Homo sapiens (Human), UniProt O60674); assay: JAK enzymatic assay (peptide mobility shift), JAK2; conditions: recombinant JAK2 2 nM, JAKtide peptide, 150 minutes
# Source text: Recombinant JAK1 (Catalog Number PV4775), JAK2 (Catalog Number PV4210) and JAK3 (Catalog Number PV3855) were purchased from (Invitrogen Corporation, Madison, Wis.). Tyk2 (His-Tyk2 (888-1182, C936S, C1142S)) used in this study was expressed and purified at Pfizer Laboratories. Adenosine 5′-triphosphate (ATP) was obtained from (Sigma Chemical Company, St. Louis, Mo.). […] Coating Reagent 3 was purchased from (Caliper Life Sciences, Hopkinton, Mass.).
# A peptide mobility shift assay was used to quantify the phosphorylation of the JAKtide (JAK2 and JAK3) or the IRS-1 peptide (JAK1 and Tyk2). Reactions were carried out in a 384-well plate (Matrical MP-101) in a 10 L total volume. […] Compounds were diluted serially in 100% dimethyl sulfoxide and tested in an 11 point dose response in duplicate or quadruplicate (200 nl of compound/DMSO was added per 10 L reaction). The reactions were initiated by the addition of enzyme to the final concentration of 2 nM JAK2, 1 nM JAK3, 12 nM Tyk2 or 20 nM JAK1. The assay was run for 240 minutes for JAK1, 150 minutes for JAK2, 90 minutes for JAK3 and 70 minutes for Tyk2. […] Data was analyzed using Hits Well Analyzer Software from (Caliper Life Sciences) to obtain the amount of product formed.
# Data was then imported into an internal application where each data point is expressed as % inhibition based on uninhibited and no enzyme controls. […]
pIC50 [1],pIC50 [2],pIC50 [3],SMILES
6.47,7.88,,"CN(c1ncnc2[nH]ccc12)[C@H]1CC[C@H](CS(=O)(=O)N2CC[C@H](O)C2)CC1 [Example 25, (3S)-1-[({trans-4-[methyl(7H-pyrrolo[2,3-d]pyrimidin-4-yl)amino]-cyclohexyl}methyl)sulfonyl]-pyrrolidin-3-ol]"
6.60,,,"CCOCCO[C@@H]1CCN(S(=O)(=O)C[C@H]2CC[C@H](N(C)c3ncnc4[nH]ccc34)CC2)C1 [Example 28, N-[trans-4-({[(3R)-3-(2-ethoxyethoxy)pyrrolidin-1-yl]sulfonyl}methyl)-cyclohexyl]-N-methyl-7H-pyrrolo[2,3-d]pyrimidin-4-amine]"
,,7.75,"C[C@@H]1C[C@@H](CS(=O)(=O)N2CC[C@@H](CO)C2)CC[C@@H]1N(C)c1ncnc2[nH]ccc12 [Example 132, {(3R)-1-[({(1S,3R,4S)-3-methyl-4-[methyl(7H-pyrrolo[2,3-d]pyrimidin-4-yl)amino]cyclohexyl}methyl)-sulfonyl]pyrrolidin-3-yl}methanol]"
